This passage reports inhibition and IC50 results from patent publication US9409915B2, “Substituted aza-bicyclic imidazole derivatives useful as TRPM8 receptor modulators” (Janssen Pharmaceutica NV, priority 2010, dated 2016).

Chains of the proteins cited; added tags and fusions are not shown. Residues count along the entry.
UniProt Q1A7N1, 1-1104: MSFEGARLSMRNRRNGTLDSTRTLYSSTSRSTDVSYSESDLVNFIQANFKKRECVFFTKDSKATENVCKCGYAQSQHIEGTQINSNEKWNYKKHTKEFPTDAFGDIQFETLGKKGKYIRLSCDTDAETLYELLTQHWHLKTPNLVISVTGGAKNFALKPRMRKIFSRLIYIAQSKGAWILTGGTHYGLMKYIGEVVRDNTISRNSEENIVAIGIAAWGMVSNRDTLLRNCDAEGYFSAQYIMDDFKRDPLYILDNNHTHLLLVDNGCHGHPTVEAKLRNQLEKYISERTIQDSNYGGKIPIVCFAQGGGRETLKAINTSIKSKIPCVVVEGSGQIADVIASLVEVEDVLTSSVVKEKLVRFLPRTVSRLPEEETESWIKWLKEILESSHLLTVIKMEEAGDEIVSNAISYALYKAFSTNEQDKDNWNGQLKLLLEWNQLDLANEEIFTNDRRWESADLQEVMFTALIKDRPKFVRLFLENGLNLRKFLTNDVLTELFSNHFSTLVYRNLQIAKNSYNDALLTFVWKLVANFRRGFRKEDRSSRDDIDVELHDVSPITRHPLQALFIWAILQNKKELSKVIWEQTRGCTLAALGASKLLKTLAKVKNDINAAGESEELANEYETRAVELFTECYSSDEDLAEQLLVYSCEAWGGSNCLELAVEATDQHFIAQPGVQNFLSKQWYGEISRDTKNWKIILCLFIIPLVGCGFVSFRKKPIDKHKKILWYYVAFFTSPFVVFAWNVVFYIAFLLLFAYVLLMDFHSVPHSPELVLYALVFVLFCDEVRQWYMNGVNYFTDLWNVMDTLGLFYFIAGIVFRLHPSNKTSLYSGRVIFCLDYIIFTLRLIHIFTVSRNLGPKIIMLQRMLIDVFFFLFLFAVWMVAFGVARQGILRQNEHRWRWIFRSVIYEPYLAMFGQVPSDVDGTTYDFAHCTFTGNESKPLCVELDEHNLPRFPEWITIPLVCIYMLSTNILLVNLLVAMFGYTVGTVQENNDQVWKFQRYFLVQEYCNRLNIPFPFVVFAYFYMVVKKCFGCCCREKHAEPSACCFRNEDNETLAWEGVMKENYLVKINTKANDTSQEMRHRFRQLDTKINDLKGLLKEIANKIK

Where a name gives a salt, the structure may show the parent alone. Read-outs that look alike come from different tables or passages of the source.

The assay concerns the target canine TRPM8 (Canis lupus familiaris, UniProt Q1A7N1). Briefly: In vitro canine TRPM8 functional assay (Ca2+-sensitive fluorescent dye, icilin activation). The class given is cell-based. Particulars: for IC50: eight-point concentration-response. The procedure: The functional activity of representative compounds of the formula (I) of the present invention was quantified by measuring changes in intracellular calcium concentration using a Ca^2+-sensitive fluorescent dye. The changes in fluorescent signal were monitored by a fluorescence plate reader, either a FLIPR™ (Molecular Devices) or FDSS (Hamamatsu).
HEK293 cells stably expressing canine TRPM8 were routinely grown as monolayers in Dulbecco's minimum essential medium supplemented with 10% FBS, 2 mM L-glutamine, 100 units/mL penicillin, 100 ug/mL streptomycin and 400 μg/mL G418. Cells were maintained in 5% CO2 at 37° C. At 24 hr prior to assay, cells were seeded in black wall, clear-base poly-D-lysine coated 384-well plates (BD Biosciences, NJ, USA) at a density of 5,000 cells per well in culture medium and grown overnight in 5% CO2 at 37° C. On assay day, growth media was removed, and cells were loaded with Calcium 3 Dye (Molecular Devices) for 35 min at 37° C., under 5% CO2 and then incubated for 25 min at room temperature and atmosphere. Subsequently, cells were tested for agonist-induced increases in intracellular Ca^2+ levels using FLIPR™ or FDSS. Cells were treated with compounds of the formula (I) at varying concentrations and intracellular Ca^2+ was measured for 5 min prior to the addition of icilin to each well to achieve a final concentration that produces an approximately 80% maximal response.
Maximal fluorescence intensity (FI) achieved upon addition of icilin was exported from the FLIPR™ or FDSS software and further analyzed using GraphPad Prism 3.02 (Graph Pad Software Inc., CA, U.S.A.). Basal FI was subtracted prior to normalizing data to percent of maximal response. Curves were generated using the average of quadruplicate wells for each data point using nonlinear regression of either sigmoidal dose response or sigmoidal dose response (variable slope). Finally, the EC50 and IC50 values were calculated with the best-fit curve determined by GraphPad Prism

Where [1] appears, read: HEK293, read-out: % Inh @ 0.2 μM.
The mark [2] stands for this setting: HEK293 cells stably expressing canine TRPM8, icilin-induced Ca2+ response.
Where [3] appears, read: HEK293, 0.2 μM compound, HEK293 cells stably expressing canine TRPM8, icilin-induced Ca2+ response, read-out: % Inh @ 0.2 μM.

As for `COc1nc(-c2ccccc2C(F)(F)F)cc2nc(-c3cc(C(C)(C)C)no3)[nH]c12` [Compound 8, 2-(3-tert-Butyl-isoxazol-5-yl)-4-methoxy-6-(2-trifluoromethyl-phenyl)-3H-imidazo[4,5-c]-pyridine sodium salt], under setting [1], the inhibition at 0.2 µM came to 99%. In addition, the IC50 under setting [2] came to 6 nM.

As to `COc1nc(-c2ccccc2F)cc2nc(-c3c(Cl)c(C(C)(C)C)nn3C)[nH]c12` [Compound 77, 2-(5-tert-Butyl-4-chloro-2-methyl-2H-pyrazol-3-yl)-6-(2-fluorophenyl)-4-methoxy-3H-imidazo[4,5-c]pyridine sodium salt], the inhibition at 0.2 µM under setting [3] was 102%. For the same molecule, under setting [2], the IC50 came out at 20 nM.

Take `COc1nc(-c2ccccc2Cl)cc2nc(-c3c(Cl)c(C(C)(C)CF)nn3C)[nH]c12` [Compound 97, 2-[4-Chloro-5-(2-fluoro-1,1-dimethyl-ethyl)-2-methyl-2H-pyrazol-3-yl]-6-(2-chloro-phenyl)-4-methoxy-3H-imidazo[4,5-c]pyridine sodium salt]: the inhibition at 0.2 µM under setting [3] was 101%. Under setting [2], this molecule showed an IC50 of 4.9 nM.

As to `COc1nc(-c2ccccc2Cl)cc2nc(-c3cc(C(C)(C)C)co3)[nH]c12` [Compound 99, 2-(4-tert-Butyl-furan-2-yl)-6-(2-chloro-phenyl)-4-methoxy-3H-imidazo[4,5-c]pyridine sodium salt], the inhibition at 0.2 µM under setting [3] was 97%. In addition, under setting [2], inhibition was half-maximal at 31.8 nM (IC50).

Consider `COc1nc(-c2ccccc2Cl)cc2nc(-c3cc(C(C)(C)C)c(Br)o3)[nH]c12` [Compound 101, 2-(5-Bromo-4-tert-butyl-furan-2-yl)-6-(2-chloro-phenyl)-4-methoxy-3H-imidazo[4,5-c]pyridine sodium salt], for which, under setting [3], the inhibition at 0.2 µM was determined as 88%. Under setting [2], this molecule had a concentration for half-maximal inhibition (IC50) of 33.9 nM.

For `COc1nc(-c2c(Cl)cccc2Cl)cc2nc(-c3c(Cl)c(C(C)(C)C)nn3C)[nH]c12` [Compound 103, 2-(5-tert-Butyl-4-chloro-2-methyl-2H-pyrazol-3-yl)-6-(2,6-dichloro-phenyl)-4-methoxy-3H-imidazo[4,5-c]pyridine sodium salt], the inhibition at 0.2 µM under setting [1] was determined as 101%.

As a reminder, the IC50 is the point on the concentration scale where inhibition reaches its midpoint. Lower therefore signals inhibition by little substance.
